Cneo AK release: Cryptococcus neoformans lysis via adenylate kinase release; hit rate 0.2% among 360,000; C. neoformans lysis, adenylate kinase release luminescence, 4 h; normalised: neutral wells 0, clomiphene wells 100; lysis activity, % at 15 µM;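 active = mean lysis activity across replicates of at least 80%, whatever share of replicates individually reach that level; inactive = mean lysis activity below 80%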
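Material – log-phase Cryptococcus neoformans yeast cells · Input – 5 × 10^6 yeast cells/mL · Medium – fresh YPD growth medium · Doses – single compound concentration per well · Timing – static 4 h at 37 °C with compound, 1 h detection · Detection – adenylate kinase release luminescence · Read-out – signal increase indicating cell lysis · Control set – Clomiphene as positive lysis control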
Yeast UUG start-1: modulators of yeast start codon fidelity, primary screen, whole organism, S. cerevisiae, single point, plate reader; S. cerevisiae UUG-firefly luciferase reporter, luminescence/redox ratio; activity score, % at 18.7 µM; actives 0.13% (n = 350,000); AID 602363, 2012;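 active = replicate mean at a twofold rise or more, about +100% in these data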;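 also: firefly luciferase made from a UUG start codon reports start codon fidelity; reporter light over untreated wells divided by growth signal over untreated wells; some hits fall short of that in this replicate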
miR122 inh: miR-122 inhibition in Huh7 cells; Huh7 miR-122 Renilla luciferase sensor, 48 h; neutral wells = 0, positive control = 100; activation (reporter increase), % at 12.5 µM; hit rate 0.3% among 340,000;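 active = mean replicate activation score at least 90 and every replicate individually at or above 90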;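 note: higher luciferase means less miR-122 activity so hits act as miR-122 inhibitors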
Statin myotox sup: protects C2C12 myotubes from simvastatin toxicity. ATP luminescence, 48 h; scaled: DMSO 0, geranylgeraniol control 100. rescue of ATP level, % at 7.49 µM. hit rate 0.78% among 330,000;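 active = mean ATP rescue above about 67%, or every replicate alone reaching that limit, limit read from the data, passing the limit was not always enough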;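 note: myotubes were challenged with 10 µM simvastatin during compound exposure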
Glyco luc inh: N-linked glycosylation inhibition | reporter increase, % at 12.5 µM | hit rate 0.23% among 360,000 | D54 ERlucT glycosylation luciferase reporter, 24 h; percent of 100 nM tunicamycin response | AID 588692;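 active = mean luciferase reporter signal, scaled so untreated is 0 and the glycosylation-blocking control 100, at or above a set limit in every replicate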;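 note: luciferase carries N-glycosylation sites so blocking glycosylation raises the light; 0% = median of neutral control wells and 100% = median of 100 nM tunicamycin wells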
Yeast UUG start-2: yeast start codon fidelity modulation. shares compounds with Yeast UUG start-1. S. cerevisiae UUG-start firefly luciferase, luminescence, 4 h; 100% means double the DMSO signal. activation, % at 38 µM. 540 tested, under 10 active. AID 652061;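 active = signal increase whose fitted curve reaches an absolute level of 40 at a concentration under 10 µM; inactive = activity opposite to the expected increase, or the rest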
The depositor's hits bear a star; [ ] = another dose, or the depositor's remark. The list is a sample of the results.

For CCOCC(=O)N1CCN(c2ccc([N+](=O)[O-])cc2)CC1 the results were Cneo AK release 13, Yeast UUG start-1 1, miR122 inh -6, Statin myotox sup 4, Glyco luc inh 3 and Yeast UUG start-2 -7.
`CC(=O)OCC(=O)N1CCN(c2ccc([N+](=O)[O-])cc2)CC1` gave Glyco luc inh 3 and Yeast UUG start-2 -5.
For COCC(=O)N(C)C[C@@H]1Oc2ncc(C3=CCCC3)cc2C(=O)N([C@@H](C)CO)C[C@@H]1C the results were Cneo AK release 0, Yeast UUG start-1 -2 and Statin myotox sup 0.
O=C(CCN1C(=O)c2ccccc2C1=O)Nn1cnnc1 was read as Cneo AK release 1, Yeast UUG start-1 -18, Statin myotox sup 15 and Glyco luc inh 2.
For COc1ccc(NC(=O)Nc2ccc3c(c2)C(=O)N([C@H](C)CO)C[C@H](C)[C@H](CN(C)C)OCCCC[C@@H](C)O3)cc1 the results were Cneo AK release 35, Yeast UUG start-1 20, miR122 inh 27[16.7 µM] and Statin myotox sup -14.

Taken from above, two compounds:
For CCOCC(=O)N1CCN(c2ccc([N+](=O)[O-])cc2)CC1 the results were Cneo AK release 13, Yeast UUG start-1 1, miR122 inh -6, Statin myotox sup 4, Glyco luc inh 3 and Yeast UUG start-2 -7.
`CC(=O)OCC(=O)N1CCN(c2ccc([N+](=O)[O-])cc2)CC1` gave Glyco luc inh 3 and Yeast UUG start-2 -5.

Screens (PubChem BioAssay)
